Experimental findings from patent US20250073184A1, “CANNABIGEROQUINONE COMPOUNDS, COMPOSITIONS INCLUDING SUCH COMPOUNDS, AND USES OF SUCH COMPOUNDS AND COMPOSITIONS” (Juva Life, Inc., priority 2021, published 2025) are described below.

The chains behind the UniProt entries cited, without tags or fusion partners.
UniProt P34972, whole entry: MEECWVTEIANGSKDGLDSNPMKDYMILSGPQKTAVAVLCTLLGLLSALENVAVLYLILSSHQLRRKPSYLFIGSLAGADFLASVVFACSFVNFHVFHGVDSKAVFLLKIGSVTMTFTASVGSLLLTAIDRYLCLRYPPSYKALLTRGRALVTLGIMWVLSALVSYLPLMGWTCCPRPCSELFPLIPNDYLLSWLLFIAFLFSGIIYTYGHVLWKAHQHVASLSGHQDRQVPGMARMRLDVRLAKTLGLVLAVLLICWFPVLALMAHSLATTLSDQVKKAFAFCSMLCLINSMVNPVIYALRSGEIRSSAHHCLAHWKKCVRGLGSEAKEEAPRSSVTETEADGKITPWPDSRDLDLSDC

This test deals with T1, cannabinoid receptor 2 (CNR2) (Homo sapiens, UniProt P34972).
T1 construct: host or cells: CHO-K1
As to the kind of experiment: CB2 receptor agonist assay (cAMP Hunter eXpress, CNR2 CHO-K1 cells). The test is classed as cell-based. How it is done: The assays were performed in cAMP Hunter eXpress cells engineered to overexpress naturally Gi/Go-coupled wildtype cannabinoid receptor 1 (CNR1) or cannabinoid receptor 2 (CNR2) in CHO-K1 cell type. In these cells, CB1 and/or […] agonists inhibit production of intracellular cAMP in response to stimulation with Forskolin. cAMP levels are determined using luminogenic detection reagents provided with the Hunter eXpress cAMP detection kit.
• Assay ready CNR1 CHO-K1 cells were obtained from Eurofins/Discover X, cat #95-0071E2 • Assay ready CNR2 CHO-K1 cells were obtained from Eurofins/Discover X, cat #95-0183E2 • Hunter eXpress cAMP detection kit was also from Discover X. The kit includes all cAMP detection reagents, Forskolin, complete cell plating medium and cell assay buffer.
The Assay-Ready CNR1 CHO-K1 or CNR2 CHO-K1 cells were thawed and re-suspended in pre-warmed Assay Complete plating medium and inoculated into 96 well plate at a density of 30,000 cells in 100 μL. The plates with cells were incubated for 24 h at 37° C. in 5% CO2. […] The cells were stimulated with the Forskolin/compound buffer for 30 min. […] The plate was read on Biotek Synergy Neo2 reader in luminescent mode. […] Relative luminescence units (RLUs) were plotted against compound concentration to determine apparent EC50 values of the agonist compounds.

As for Cannabigerol Quinone [Formula VI], the “selectivity as an agonist for CB2 receptor activation over CB1 receptor activation” value is reported as “good selectivity”. Further, the “Selectivity for CB2 over CB1 (fold)” value (ratio of agonist IC50 values) is >25 fold.
